Legend:
[1] = molecular target: hCRLR/hRAMP1 (human CGRP receptor) (Homo sapiens, UniProt O60894+Q16602); assay: competitive 125I-hCGRP binding, membranes of 293 EBNA cells expressing hCRLR/hRAMP1
[2] = molecular target: mCRLR/mRAMP1 (native mouse receptor) (Mus musculus, UniProt Q9R1W5+Q9WTJ5); assay: competitive binding, membranes expressing mCRLR/mRAMP1; conditions: Table 7
[3] = molecular target: hCRLR/rRAMP1 (UniProt Q16602+Q9JJ74); assay: competitive 125I-hCGRP binding, membranes expressing hybrid hCRLR/rRAMP1; design: species or system human CRLR, rat RAMP1; conditions: Table 4
[4] = molecular target: rCRLR/Chimera 1 (Rattus norvegicus, UniProt Q63118+Q9JJ74, D29E/D31N/E46V/G64R/I36L/I51V/K45Q/K53E/K61R/P30A/Q37R/R28Q/R43Q/S42T/T34A/T50A/V24T); assay: competitive 125I-hCGRP binding, membranes expressing rCRLR with RAMP1 Chimera 1; design: species or system rat CRLR, human/rat chimeric RAMP1; conditions: Table 5; rCRLR/Chimera 1 (first 66 aa of rRAMP1 replaced with human)
Source text: Two human/rat chimeric RAMP1 cDNAs were constructed by using restriction fragments of the corresponding native cDNAs. Chimera 1 was created by replacing the nucleotides coding for the first 66 amino acids of rRAMP1 with the corresponding nucleotides of hRAMP1 by using the BsgI restriction site along with a NheI site located in the cloning vector. Chimera 2 was created by replacing the nucleotides coding for the first 112 amino acids of rRAMP1 with the corresponding nucleotides of hRAMP1 by using the SanDI restriction site along with a NheI site located in the cloning vector. Cell Culture and DNA Transfection-293 EBNA cells were cultured in DMEM with 4.5 g/L glucose, 1 mM sodium pyruvate and 2 mM glutamine supplemented with 10% Fetal Bovine Serum (FBS), 100 units/mL penicillin and 100 μg/mL streptomycin, and maintained at 37° C. and 95% humidity. Cells were subcultured by treatment with 0.25% trypsin with 0.1% EDTA in HBSS. Twenty-four hours prior to transfection, the cells were seeded at 2.0×10^7/dish in 500 cm^2 dishes. The following day, the cells were re-fed with fresh growth medium 1 hour before transfection. Transfections were performed by combining 60 μg/dish DNA with 180 μg/dish Lipofectamine 2000 (Life Technologies). cDNA's for CRLR and RAMP1 in the mammalian expression vector pcDNA3.1 were co-transfected in equal amounts. […] Data were analyzed by using GraphPad Prism. […]

Sequences of proteins named here, by UniProt entry; tags and fusion partners are left off. Residues count along the entry.
UniProt Q9R1W5, 23-463 limits assumed: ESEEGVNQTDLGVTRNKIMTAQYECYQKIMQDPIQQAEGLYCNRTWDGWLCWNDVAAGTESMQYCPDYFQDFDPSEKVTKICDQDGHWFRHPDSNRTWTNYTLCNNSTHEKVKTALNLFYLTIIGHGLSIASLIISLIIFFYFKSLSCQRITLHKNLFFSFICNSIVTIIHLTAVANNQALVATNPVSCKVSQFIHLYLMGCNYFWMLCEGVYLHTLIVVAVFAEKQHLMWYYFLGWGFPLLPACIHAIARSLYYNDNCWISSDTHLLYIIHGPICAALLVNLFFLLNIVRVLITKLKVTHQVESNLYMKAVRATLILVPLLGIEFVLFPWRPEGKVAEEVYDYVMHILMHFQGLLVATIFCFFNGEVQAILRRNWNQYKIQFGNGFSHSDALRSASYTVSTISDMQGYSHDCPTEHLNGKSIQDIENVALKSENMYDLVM
UniProt Q9WTJ5, 27-148 K74W limits assumed: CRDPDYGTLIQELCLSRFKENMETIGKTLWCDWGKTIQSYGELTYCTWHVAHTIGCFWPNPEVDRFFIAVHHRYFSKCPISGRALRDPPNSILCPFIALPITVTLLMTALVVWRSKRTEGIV
UniProt Q9WTJ5, 27-148 limits assumed: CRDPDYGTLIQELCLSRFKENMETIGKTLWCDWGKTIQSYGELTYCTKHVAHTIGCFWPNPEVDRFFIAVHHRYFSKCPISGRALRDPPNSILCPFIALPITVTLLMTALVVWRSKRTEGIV

[5] = molecular target: rCRLR/Chimera 2; assay: competitive 125I-hCGRP binding, membranes expressing rCRLR with RAMP1 Chimera 2; design: species or system rat CRLR, human/rat chimeric RAMP1; conditions: Table 5; rCRLR/Chimera 2 (first 112 aa of rRAMP1 replaced with human)
[6] = molecular target: mCRLR/mK74W RAMP1 (Mus musculus, UniProt Q9R1W5+Q9WTJ5, K74W); assay: competitive binding, membranes expressing mCRLR and mutant mK74W RAMP1
[7] = molecular target: rCRLR/rRAMP1 (native rat CGRP receptor) (Rattus norvegicus, UniProt Q63118+Q9JJ74); assay: competitive 125I-hCGRP binding, membranes expressing rCRLR/rRAMP1
[8] = molecular target: rCRLR/hRAMP1 (UniProt O60894+Q63118); assay: competitive 125I-hCGRP binding, membranes expressing hybrid rCRLR/hRAMP1; conditions: Table 4
[9] = molecular target: rCRLR/rK74W RAMP1 (Rattus norvegicus, UniProt Q63118+Q9JJ74, K74W); assay: competitive 125I-hCGRP binding, membranes expressing rCRLR and mutant rK74W RAMP1
Method: Rat RAMP1 site-directed mutagenesis was performed by using the Quick Change Site-directed Mutagenesis Kit (Stratagene) according to the manufacturer's instructions. […] of rRAMP1 was replaced with the corresponding human/marmoset amino acid tryptophan utilizing two complementary mutant oligonucleotide primers ([NT] ID NO:27] and [NT] ID NO:28]) and the rRAMP1 expression vector construct as template. This mutation was accomplished by substituting the codon TGG corresponding to tryptophan (r[…] RAMP1). All constructs were sequenced bidirectionally with 100% coverage in each direction. Cell Culture and DNA Transfection-293 EBNA cells were cultured in DMEM with 4.5 g/L glucose, 1 mM sodium pyruvate and 2 mM glutamine supplemented with 10% Fetal Bovine Serum (FBS), 100 units/mL penicillin and 100 μg/mL streptomycin, and maintained at 37° C. and 95% humidity. Cells were subcultured by treatment with 0.25% trypsin with 0.1% EDTA in HBSS. Twenty-four hours prior to transfection, the cells were seeded at 2.0×10^7/dish in 500 cm^2 dishes. The following day, the cells were re-fed with fresh growth medium 1 hour before transfection. Transfections were performed by combining 60 μg/dish DNA with 180 μg/dish Lipofectamine 2000 (Life Technologies). cDNA's for CRLR and RAMP1 in the mammalian expression vector pcDNA3.1 were co-transfected in equal amounts. […] Data were analyzed by using GraphPad Prism. […]

IC50 ([1]; Table 4, hCRLR/hRAMP1, transient 293 EBNA membranes): 150 nM
IC50 ([1]; Table 5, hCRLR/hRAMP1): 150 nM
IC50 ([1]; Table 6, hCRLR/hRAMP1): 270 nM
IC50 ([1]; Table 7, hCRLR/hRAMP1): 150 nM
IC50 [2]: > 20 µM
IC50 [3]: 24 µM
IC50 [4]: 9 µM
IC50 [5]: 150 nM
IC50 ([6]; Table 7, mCRLR/mK74W RAMP1): 13 nM
higher affinity for the mCRLR/mK74W RAMP1 receptor than for the native human receptor ([6]; mCRLR/mK74W RAMP1 vs hCRLR/hRAMP1): > 10 fold
IC50 ([7]; Table 4): 15 µM
IC50 ([7]; Table 6): 20 µM
IC50 [8]: 190 nM
IC50 ([9]; Table 6, rCRLR/rK74W RAMP1): 19 nM
higher affinity for the rCRLR/rK74W RAMP1 receptor than for the native human receptor ([9]; rCRLR/rK74W RAMP1 vs hCRLR/hRAMP1): > 10 fold
Compound: O=C(NC(Cc1cc(Br)c(O)c(Br)c1)C(=O)N1CCN(c2ccccc2)CC1)N1CCC(n2c(=O)[nH]c3ccccc32)CC1 (stereo not drawn)

— patent publication US20040197859A1, “Isolated dna molecules encoding humanized calcitonin gene-related peptide receptor, related non-human transgenic animals and assay methods” (priority 2001, published 2004)
